Reference: patent US20120328692A1, “POTENT D-PEPTIDE ANTAGONISTS OF MDM2 AND MDMX FOR ANTICANCER THERAPY” (UNIVERSITY OF MARYLAND, BALTIMORE, priority 2011, published 2012)

Columns and labels:
U251 cells = test: Western blot of p53 responsive genes in U251 cells; format: cell-based, human; settings: Western blotting, 12 h after treatment
U87 cells = test: Western blot of p53 responsive genes in U87 cells; format: cell-based, human; settings: Western blotting, 12 h after treatment
[1] = system: human glioma cell line U87 (wild type p53); test: MTS cell viability assay, U87 cells; format: cell-based; settings: similar in vitro experiments, unpublished results
[2] = system: U87 xenografts (subcutaneous); test: subcutaneous U87 xenograft model; settings: similar in vivo experiments, unpublished results

SMILES | expression of p53 responsive genes MDM2 and p21 (U251 cells) | expression of p53 responsive genes MDM2 and p21 (U87 cells) | effectiveness compared with ^DPMI-α in vitro [1] | effectiveness compared with ^DPMI-α in vivo [2]
CC(C)C[C@@H](NC(=O)[C@@H](CC(C)C)NC(=O)[C@@H](CCCCN)NC(=O)[C@@H](CCC(=O)O)NC(=O)[C@@H](CC(C)C)NC(=O)[C@@H](CC(N)=O)NC(=O)[C@@H](C)NC(=O)[C@@H](Cc1ccc(O)cc1)NC(=O)[C@@H](Cc1c[nH]c2ccccc12)NC(=O)[C@@H](CC(N)=O)NC(=O)[C@H](N)[C@H](C)O)C(=O)N[C@H](CCCNC(=N)N)C(=O)O [^DPMI-α] | not in U251 cells | dose-dependent expression |  | 
CC(C)C[C@@H](NC(=O)[C@@H](CC(C)C)NC(=O)[C@@H](CCCCN)NC(=O)[C@@H](CCC(=O)O)NC(=O)[C@@H](Cc1ccccc1)NC(=O)[C@@H](CC(N)=O)NC(=O)[C@@H](C)NC(=O)[C@@H](Cc1ccc(O)cc1)NC(=O)[C@@H](Cc1c[nH]c2ccccc12)NC(=O)[C@@H](C)NC(=O)[C@H](N)[C@H](C)O)C(=O)N[C@H](CCCNC(=N)N)C(=O)O [^DPMI-β] |  |  | more effective than ^DPMI-α | more effective than ^DPMI-α
